Read-outs that look alike come from different tables or passages of the source.
What was measured:
[1] = target: T1, human HAB TSPO (Homo sapiens, UniProt P30536); assay: Receptor binding assay in human leukocyte homogenates with [^3H]1, HAB
[2] = target: T2, human LAB TSPO (Homo sapiens, UniProt P30536); assay: Receptor binding assay in human leukocyte homogenates with [^3H]1, LAB
[3] = target: T2, human LAB TSPO; format: binding
[4] = target: T1, human HAB TSPO; settings: read-out: mean KD; self-displacement assay; human leukocyte homogenates; cited from earlier work

Protein sequences, listed by entry. Tags and fused reporters are not part of them. Residues count along the entry.
UniProt P30536, whole entry: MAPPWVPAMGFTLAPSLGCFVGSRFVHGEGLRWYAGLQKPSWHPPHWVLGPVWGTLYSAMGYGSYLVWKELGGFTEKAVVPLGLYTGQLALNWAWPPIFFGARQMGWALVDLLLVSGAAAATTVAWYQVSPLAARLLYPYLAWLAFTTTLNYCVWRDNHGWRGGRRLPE
UniProt P30536, 2-169 limits assumed: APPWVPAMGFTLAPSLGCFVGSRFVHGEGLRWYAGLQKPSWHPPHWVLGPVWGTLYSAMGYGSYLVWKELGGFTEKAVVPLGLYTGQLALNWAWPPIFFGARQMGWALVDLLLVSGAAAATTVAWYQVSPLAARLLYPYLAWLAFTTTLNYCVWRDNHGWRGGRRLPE

## CCC(C)N(C)C(=O)c1cc2ccccc2c(-c2ccccc2Cl)n1 (stereo not shown) [Ligand 1]
[1]
  Ki: 4.06 ± 1.2 nM
[2]
  Ki: 3.94 ± 1.2 nM
[3]
  Ki: 4.16 ± 0.89 nM
[4]
  Kd: 4.7 nM

— article PMC4210126 (ACS Chemical Neuroscience, 2014)
